Source: US20100093623

Key:
[1] = molecular target: T1, Bcl-2 Loop peptide 35-83 (synthetic)
T1 chain: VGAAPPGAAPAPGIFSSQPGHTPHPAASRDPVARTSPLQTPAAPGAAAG

[2] = molecular target: GST-Bcl-2 (Bcl-2 lacking its C-terminal transmembrane domain, ~last 20 amino acids) [GST: P08515]

B1: fully active, proteolytically processed Caspase-1 comprised of p20 and p10 catalytic subunits purified from bacteria (protein)
chain 1: NPAMPTSSGSEGNVKLCSLEEAQRIWKQKSAEIYPIMDKSSRTRLALIICNEEFDSIPRRTGAEVDITGMTMLLQNLGYSVDVKKNLTASDMTTELEAFAHRPEHKTSDSTFLVFMSHGIREGICGKKHSEQVPDILQLNAIFNMLNTKNCPSLKDKPKVIIIQACRGDSPGVVWFKD
chain 2: AIKKAHIEKDFIAFCSSTPDNVSWRHPTMGSVFIGRLIEHMQEYACSCDVEEIFRKVRFSFEQPDGRAQMPTTERVTLTRCFYLFPGH
Q: B1 was tested. Which “Caspase-1 activity (Ac-WEHD-AMC hydrolysis)” value [1] did it give?
A: The value was “this 35-83 Bcl-2 loop peptide did not directly inhibit Caspase-1”.

Q: What about the “Caspase-1 activity (Ac-WEHD-AMC hydrolysis)” value [2] of the same protein?
A: Its value is “neither Bcl-2 nor Bcl-XL suppressed Caspase-1 activity”.
